This note sets out measurements from paper PMC9073949 (Crystal Growth & Design, 2022).

A short description of this series: Insulin crystallization kinetics (desupersaturation, induction time, crystal yield). The class given is physicochemical. As to conditions: pH 6.2, initial supersaturation ratio increased from 5.6 to 10.0. Here is the method: Precise temperature control was achieved by using incubators held at a constant temperature. Citric acid buffer (0.1 M) was prepared at different pH levels by varying the ratio between citric acid and tri-sodium citrate. The pH was determined using a Jenway 4330 pH and conductivity meter (Jenway, UK) with an instrument resolution of around ±0.02 pH units. Zinc sulfate (ZnSO4), zinc chloride (ZnCl2), or zinc acetate (ZnAc) were dissolved in citric acid buffer as a zinc salt stock solution. […] Each experimental condition was repeated multiple times, and the error bars represent the deviation between these repetitions. The desupersaturation (crystallization occurs and the solution concentration decreases) was monitored by measuring the UV–vis absorption at a wavelength of 280 nm with a NanoDrop One^c microvolume UV–vis spectrophotometer (Thermo Fischer Scientific, USA). A sample as small as 10–20 μL was withdrawn from the crystallizer (Eppendorf tube) and was centrifuged (6000 rpm, 10–20 min). […] An extinction coefficient of 1.04 mL·mg^–1·cm^–1 was utilized.[32] Multiple dilutions for every sample were made to minimize dilution errors. […]
The crystal yield was calculated to evaluate the performance of crystallization. […]

Take Human insulin: the “reduction in induction time” value came to 75%.
